Reference: ChEMBL document CHEMBL3763153, “Recent Update on Human Lactate Dehydrogenase Enzyme 5 (hLDH5) Inhibitors: A Promising Approach for Cancer Chemotherapy” (J Med Chem, 2016)

Target: L-lactate dehydrogenase A chain (Homo sapiens, UniProt P00338)

## NC(=O)C(=O)O [OXAMATE]
  Ki: 136 µM
